One test concerns the target T1, human TLR7 (Homo sapiens, UniProt Q9NYK1).
T1 sequence (Q9NYK1 27-1049): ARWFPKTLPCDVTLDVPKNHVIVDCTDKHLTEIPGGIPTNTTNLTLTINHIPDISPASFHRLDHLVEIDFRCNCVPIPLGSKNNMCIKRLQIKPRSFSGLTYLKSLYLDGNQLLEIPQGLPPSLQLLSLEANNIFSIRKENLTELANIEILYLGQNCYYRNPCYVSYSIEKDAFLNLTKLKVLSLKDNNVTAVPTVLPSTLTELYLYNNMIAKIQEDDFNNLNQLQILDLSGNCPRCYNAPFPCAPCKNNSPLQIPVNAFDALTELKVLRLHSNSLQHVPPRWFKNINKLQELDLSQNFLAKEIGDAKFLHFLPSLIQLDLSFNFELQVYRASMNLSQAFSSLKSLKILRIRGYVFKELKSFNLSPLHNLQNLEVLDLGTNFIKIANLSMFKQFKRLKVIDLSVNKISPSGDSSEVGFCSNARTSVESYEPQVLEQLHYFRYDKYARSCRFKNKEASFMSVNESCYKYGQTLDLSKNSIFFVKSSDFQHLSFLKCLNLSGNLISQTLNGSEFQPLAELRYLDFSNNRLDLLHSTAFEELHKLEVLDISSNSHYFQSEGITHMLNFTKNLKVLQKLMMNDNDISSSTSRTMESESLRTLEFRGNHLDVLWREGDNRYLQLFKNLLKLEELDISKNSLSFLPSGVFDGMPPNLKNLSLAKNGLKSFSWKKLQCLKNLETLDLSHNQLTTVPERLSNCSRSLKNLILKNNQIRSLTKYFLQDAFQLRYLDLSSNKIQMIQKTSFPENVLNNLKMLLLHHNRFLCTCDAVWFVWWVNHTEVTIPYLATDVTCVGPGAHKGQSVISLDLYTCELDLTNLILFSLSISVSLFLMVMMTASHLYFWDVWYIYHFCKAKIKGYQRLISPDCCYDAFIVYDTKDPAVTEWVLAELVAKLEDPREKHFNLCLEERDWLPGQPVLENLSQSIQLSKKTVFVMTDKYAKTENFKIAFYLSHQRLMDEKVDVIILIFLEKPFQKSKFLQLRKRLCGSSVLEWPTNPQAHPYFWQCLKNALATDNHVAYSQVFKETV
The experiment in a line: HEK-Blue hTLR7 SEAP reporter gene inhibition assay. Format: cell-based. Particulars: HEK-Blue hTLR7 IC50 (µM). The method, then:
(§1) HEK-Blue cells with stable expression of human TLR7 or TLR8 were used in the evaluation of inhibitory activity of compounds in the present invention against TLR7 or TLR8, by using its ability to induce the SEAP reporting gene under the control of the fusion of IFN-β minimum promoters into five NF-κB and ap-1 binding sites, as follows: hTLR7 HEK-Blue cells (Invivogen, 80, 000 cells per well) or hTLR8 HEK-Blue cells (60, 000 cells per well) were added to a 96-well cell culture plate. A solution of the testing compounds were added to each well, with the final concentration of tested compounds in the medium ranged from 0.001 to 36 µM and the culture was incubated for 15 minutes. M5049 was used as positive controls in the testing.
(§2) Then a TLR7 ligand (Gardiquimod, purchased from MedChemExpress, with final concentration of ligand in cell culture medium kept at 10 µM) or a TLR8 ligand (purchased from MedChemExpress with final concentration in cell culture media at 10 µM) and the culture was incubated for 20 hours. According to the manufacturer's instructions, a HEK-Blue reagent Quanti-blue (Invivogen) was used to detect the SEAP levels in cell cultures. The half […] concentration or IC50 was calculated by using GraphPad Prism. The IC50 values were defined as A and B (Against hTLR7 EC50(µM): A < 0.05 µM, B > 0.05 µM; against hTLR8 EC 50(µM): A < = 0.1 µM, B > 0.1 µM; -, as untested). […]

A further test deals with T2, human TLR8 (Homo sapiens, UniProt Q9NR97).
T2 construct: expressed in transfected cells
T2 sequence (Q9NR97 27-1041): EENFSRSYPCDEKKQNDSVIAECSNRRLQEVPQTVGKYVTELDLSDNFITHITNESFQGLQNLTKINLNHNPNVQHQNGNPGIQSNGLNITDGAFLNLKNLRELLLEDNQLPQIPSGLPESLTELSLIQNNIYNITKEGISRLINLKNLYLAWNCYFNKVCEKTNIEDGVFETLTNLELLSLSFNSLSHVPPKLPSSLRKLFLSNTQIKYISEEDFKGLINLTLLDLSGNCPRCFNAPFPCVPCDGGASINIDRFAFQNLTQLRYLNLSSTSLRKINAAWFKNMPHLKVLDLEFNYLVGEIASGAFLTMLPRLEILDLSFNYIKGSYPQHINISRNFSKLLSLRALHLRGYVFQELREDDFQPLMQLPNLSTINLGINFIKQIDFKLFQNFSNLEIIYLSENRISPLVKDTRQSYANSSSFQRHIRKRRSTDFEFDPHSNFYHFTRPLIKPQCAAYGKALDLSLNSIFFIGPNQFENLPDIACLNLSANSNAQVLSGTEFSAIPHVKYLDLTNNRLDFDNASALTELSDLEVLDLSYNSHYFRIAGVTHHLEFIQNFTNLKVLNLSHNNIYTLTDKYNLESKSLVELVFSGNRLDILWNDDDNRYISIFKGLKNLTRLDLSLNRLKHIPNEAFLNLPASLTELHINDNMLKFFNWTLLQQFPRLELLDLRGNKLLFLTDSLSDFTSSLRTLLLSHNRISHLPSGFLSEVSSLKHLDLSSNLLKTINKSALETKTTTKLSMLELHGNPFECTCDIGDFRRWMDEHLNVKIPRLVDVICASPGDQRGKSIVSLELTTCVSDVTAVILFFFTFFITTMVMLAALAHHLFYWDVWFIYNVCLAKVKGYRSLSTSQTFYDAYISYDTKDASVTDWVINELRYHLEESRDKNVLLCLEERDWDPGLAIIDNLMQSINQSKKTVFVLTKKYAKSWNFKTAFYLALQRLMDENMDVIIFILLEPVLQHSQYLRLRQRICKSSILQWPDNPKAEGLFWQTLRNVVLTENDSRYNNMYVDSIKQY
The experiment in a line: HEK-Blue hTLR8 SEAP reporter gene inhibition assay. Type of test: cell-based. The settings on record: HEK-Blue hTLR8 IC50 (µM). As for the experimental part: as §1, §2
Background: Reporter assays use an easily measured gene product as a stand-in for the process of interest.

The structures appear in SMILES notation.

As for `C[C@@H]1CN(c2ccc(C#N)n3ncc(F)c23)Cc2c3c(nn21)CN(CC12CC(C(=O)N(C)C)(C1)C2)[C@@H](C)C3` [Example I-202, 3-(((4R,9S)-2-(7-cyano-3-fluoropyrazolo[1,5-a]pyridin-4-yl)-4,9-dimethyl-1,2,3,4,9,10-hexahydropyrido[3',4':3,4]pyrazolo[1,5-a]pyrazin-8(7H)-yl)methyl)-N,N-dimethyl bicyclo[1.1.1]pentane-1-carboxamide], the 50% inhibitory concentration (IC50) (usually the concentration needed to halve the response being measured) against human TLR7 was > 0.05 µM; on human TLR8, < 0.1 µM.
